Earlier results as cited in patent publication US20070129329A1, “Stabilized pharmaceutical composition of pramipexole and method of preparation thereof” (ALEMBIC LIMITED, priority 2005, published 2007).

Conditions: drug substance itself

stability in solid state: good stability
SMILES: CCCN[C@H]1CCc2nc(N)sc2C1.Cl.Cl.O [pramipexole dihydrochloride, (S)-2-amino-4,5,6,7-tetrahydro-6-(propylamino) benzothiazole dihydrochloride monohydrate]
